# The list shows a part of the results.
# Tested on: A. baumannii ATCC 17978
# Experiment: relative growth (fraction of control); higher = less inhibition
# Details: 50 µM
row,SMILES,relative growth
1,O=C1CNC(=S)N1c1ccccc1,0.985
2,N#CCC(=O)Nc1ccncc1,0.824
3,CCCNC(=O)Nc1ccc2c(c1)C(=O)N(C)C[C@@H](OC)[C@@H](C)CN(Cc1ccc(-c3ccccn3)cc1)[C@@H](C)CO2,1.18
4,O=C(NCCCO)c1cc2ccccc2oc1=O,0.928
5,COc1cccc(NC(=O)N2C[C@H](O)COC[C@H]3O[C@H](CC(=O)NCCCN4CCOCC4)CC[C@@H]32)c1,1.14
6,O=C(C[C@H]1CC[C@H]2[C@@H](COC[C@@H](O)CN2S(=O)(=O)c2ccc(Oc3ccccc3)cc2)O1)NC1CCC1,1.02
7,Nc1cnn([C@H]2O[C@@H](COC(=O)c3ccccc3)[C@@H](O)[C@@H]2O)c(=O)n1,1.11
8,c1ccc(CN(CC2=NCCN2)c2ccccc2)cc1,1.16
9,C[C@@H]1CN([C@H](C)CO)S(=O)(=O)c2ccc(C#CC3CC3)cc2O[C@H]1CN(C)Cc1ccccc1F,1.4
10,COc1cccc(-c2ccc3c(c2)O[C@H](CN(C)C(=O)C2CCC2)[C@H](C)CN([C@H](C)CO)S3(=O)=O)c1,0.736
11,Cl.NC(N)=NC(=O)Cc1c(Cl)cccc1Cl,0.819
12,Cc1ccc(S[C@]2(C(=O)NCc3ccccc3)CC(=O)N(C3Cc4ccccc4C3)[C@@H]2c2ccc(CO)cc2I)cc1,0.993
13,CC(C)NC(=O)[C@@H]1c2ccccc2C(=O)N(Cc2cc(C(F)(F)F)cc(C(F)(F)F)c2)[C@H]1c1ccc(CO)cc1,0.71
14,COc1cc(/C=C/C(=O)N2CCCCCCC2)cc(OC)c1OC,0.998
15,O=C1O[C@@H](CO)[C@H](O)[C@@H](O)[C@@H]1O,1.16
16,COC1O[C@@H]2O[C@]3(C)CC[C@H]4[C@H](C)CC[C@@H]([C@H]1C)[C@@]24OO3 (stereo partly drawn),1.11
17,CN/C(=N\C#N)NCCSCc1nc[nH]c1C,1.1
18,C=CC[C@@H](CC(=O)N[C@H](CO)Cc1ccccc1)C(=O)N[C@H](COC(=O)[C@@H](CC=C)Cc1ccc(F)cc1)Cc1c[nH]c2ccccc12,1.1
19,CC(=O)n1cc([C@H]2C=C(C(=O)N3CCN(C)CC3)O[C@@H](OCc3ccc(CO)cc3)C2)c2ccccc21,0.933
20,O=C(C[C@@H]1C[C@@H]2c3cc(NC(=O)C4CCOCC4)ccc3O[C@@H]2[C@@H](CO)O1)NCCN1CCCCC1,1.02
21,O=C(N[C@@H]1CC[C@@H](CCNS(=O)(=O)c2ccccc2)O[C@@H]1CO)c1cnccn1,0.984
22,NC(=O)NS(=O)(=O)c1ccc(N)cc1,1.11
23,C[C@@H]1CN([C@@H](C)CO)S(=O)(=O)c2ccc(-c3cccc(C#N)c3)cc2O[C@H]1CN(C)C(=O)c1ccncc1,0.993
